In patent US6645965B1, “Nitrate salts of antihypertensive medicines” (priority 1998, dated 2003):

Test system: gastric tissue
Assay: Gastric toxicity in rats given ethanol 50% by os (gastric lesions)
Type: in vivo
Details: Sprague-Dawley male rats (n=10), 10 mg/Kg i.p. as free base, ethanol 50% by os 30 minutes later; Controls 50
Experimental: 5 groups of Sprague-Dawley male rats (n=10), were fasted for 24 hours. 4 groups were then respectively treated i.p. with Sildenafil, Zaprinast, and the relevant nitrate salts of said drugs. One group was not treated and was tha control group. 30 minutes later 1 ml of ethanol 50% in water was given by os to the animals.
One hour later the animals were sacrificed. The stomach was removed and the gastric tissue was macroscopically examined.
The results are reported in Table X. In the Table the gastric toxicity given as % incidence is the number of rats in a group showing gastric lesions.

“Sildenafil Nitrate Salt [Sildenafil.HNO3]” was tested, and the “Gastric toxicity (% incidence)” value was 20 % incidence.
